Patent publication US9139658B2, “Medicament for treatment cancer” (SUMITOMO DAINIPPON PHARMA CO., LTD., priority 2000, dated 2015)

System: Human breast cancer cell line BT-474
Assay: Evaluation of combination effects in vitro (WST-1 proliferation, Combination Index by Pegram method)
Format: cell-based
Description: The effects of the combined use were evaluated by calculating a Combination Index (CI) following a method of Pegram et al. (M. Pegram et al., Oncogene, 18, 2241-2251 (1999)). Human breast cancer cell line BT-474 (a cell line in which HER2 is highly expressed) was obtained from ATCC (American Type Culture Collection). In a medium comprising equal amount of D-MEM (Dulbecco's Modified Eagle Medium) medium and F-12 (Nutrient Mixture F-12) medium which further contains 2.5 mM L-glutamine, 10% bovine fetal serum (FCS) and 2.5 μg/ml amphotericin B, human breast cancer cell line BT-474 was subcultured. The culture was carried out in an incubator with 5% CO2 at 37° C. This medium was also used in the following experiments. HerceptinTM was dissolved in a dissolution solution attached thereto to prepare a 21 mg/ml stock solution. Thereafter, the solution was used after 2 fold serial dilutions with the medium. […] Doxorubicin hydrochloride was obtained from Kyowa Hakko Kogyo Co., Ltd. A 2 mg/ml solution was prepared by adding 5 ml of sterile water to a 10 mg vial, and the solution was used. Human breast cancer cell line BT-474 on subculture were subjected to a trypsin treatment, suspended in the medium, and seeded on a 96-well plate. The seeding density was set to be 1×10^4 cells/0.1 ml/well. After seeding, cells were cultured overnight in an incubator with 5% CO2 at 37° C. (Day 0). […] The experiments were conducted with n=3 for the agent-treated group, and with n=6 for the non-treated (control) group. Until Day 4, culture was conducted in an incubator with 5% CO2 at 37° C. […] Thereafter, culture was conducted in an incubator with 5% CO2 at 37° C. for 2-4 hours. Absorbance of the culture was then measured with MICROPLATE READER Model 3550-UV (BioRad), and living cell number was measured. […] absorbance: […] The value of X intercept represents a common logarithm of an IC50 value (concentration of the agent required for 50% inhibition of the cell proliferation). […] CI and inhibition rate of proliferation fa were calculated as described above.

“Herceptin: humanized anti-HER2 antibody Trastuzumab (Herceptin™, Genentech, Ltd.)” was tested, and the “D2 (concentration of Herceptin in combination required for fa)” value (combination with amrubicin hydrochloride, dosage ratio 40:1, fa 0.9, BT-474) was 0.032 µg/mL, the “D2 (concentration of Herceptin in combination required for fa)” value (combination with amrubicinol hydrochloride, dosage ratio 2:1, fa 0.9, BT-474) was 0.119 µg/mL and the “D2 (concentration of Herceptin in combination required for fa)” value (combination with amrubicinol hydrochloride, dosage ratio 4:1, fa 0.9, BT-474) was 0.053 µg/mL. For the same substance, the “D2 (concentration of Herceptin in combination required for fa)” value (combination with amrubicinol hydrochloride, dosage ratio 8:1, fa 0.9, BT-474) was 0.035 µg/mL, the “D2 (concentration of Herceptin in combination required for fa)” value (combination with doxorubicin hydrochloride, dosage ratio 2:1, fa 0.9, BT-474) was 0.187 µg/mL and the “Df2 (concentration of Herceptin as single agent required for fa)” value (single agent, fa 0.9, BT-474) was 6.312 µg/mL.
